# Measurements reported in US7407969B2, “Respiratory syncytial virus replication inhibitors” (Janssen Pharmaceutica, N.V., priority 1999, dated 2008).
# Test system: HeLa cells
# Experiment: Cytotoxicity (CC50) in mock-infected HeLa cells, tetrazolium (MTT) colorimetric assay
# Assay type: cell-based
# Conditions: 7 days
# Procedure: The percent protection against cytopathology caused by viruses (antiviral activity or IC50) achieved by tested compounds and their cytotoxicity (CC50) were both calculated from dose-response curves.
# Automated tetrazolium-based […] assays were used for determination of IC50 and CC50 of test compounds. Flat-bottom, 96-well plastic microtiter trays were filled with 180 μl of Eagle's Basal Medium, supplemented with 5% FCS (0% for FLU) and 20 mM Herpes buffer. Subsequently, stock solutions (7.8×final test concentration) of compounds were added in 45 μl volumes to a series of triplicate wells so as to allow simultaneous evaluation of their effects on virus- and mock-infected cells. Five five-fold dilutions were made directly in the microtiter trays using a robot system. Untreated virus controls, and HeLa cell controls were included in each test. Approximately 100 TCID50 Respiratory Syncytial Virus was added to two of the three rows in a volume of 50 μl. […] Finally, the absorbances were read in an eight-channel computer-controlled photometer (Multiskan MCC, Flow Laboratories) at two wavelengths (540 and 690 nm). The absorbance measured at 690 nm was automatically subtracted from the absorbance at 540 nm, so as to eliminate the effects of non-specific absorption.
substance,measurement,value
"(±)-N-[1-(2-amino-3-methylbutyl)-4-piperidinyl]-3-(quinolinylmethyl)-3H-imidazo[4,5-b]pyridin-2-amine [Compound 42]",CC50,> 10.1 µM
